The experiment addresses Apoptotic protease-activating factor 1 (Homo sapiens) (UniProt O14727). The experiment is described as follows: Apaf-1 activators, single-dose retest, confirmation, biochemical, fluorescence, DEVD-Rh110, 20 µM (AID 504617). Particulars: reconstituted apoptosome caspase-3 activity, at 20 µM, active compounds read low.

Sequences of proteins named here, by UniProt entry; tags and fusion partners are left off. A change or cut given only in a name is not applied to a line headed by its entry.
UniProt O14727: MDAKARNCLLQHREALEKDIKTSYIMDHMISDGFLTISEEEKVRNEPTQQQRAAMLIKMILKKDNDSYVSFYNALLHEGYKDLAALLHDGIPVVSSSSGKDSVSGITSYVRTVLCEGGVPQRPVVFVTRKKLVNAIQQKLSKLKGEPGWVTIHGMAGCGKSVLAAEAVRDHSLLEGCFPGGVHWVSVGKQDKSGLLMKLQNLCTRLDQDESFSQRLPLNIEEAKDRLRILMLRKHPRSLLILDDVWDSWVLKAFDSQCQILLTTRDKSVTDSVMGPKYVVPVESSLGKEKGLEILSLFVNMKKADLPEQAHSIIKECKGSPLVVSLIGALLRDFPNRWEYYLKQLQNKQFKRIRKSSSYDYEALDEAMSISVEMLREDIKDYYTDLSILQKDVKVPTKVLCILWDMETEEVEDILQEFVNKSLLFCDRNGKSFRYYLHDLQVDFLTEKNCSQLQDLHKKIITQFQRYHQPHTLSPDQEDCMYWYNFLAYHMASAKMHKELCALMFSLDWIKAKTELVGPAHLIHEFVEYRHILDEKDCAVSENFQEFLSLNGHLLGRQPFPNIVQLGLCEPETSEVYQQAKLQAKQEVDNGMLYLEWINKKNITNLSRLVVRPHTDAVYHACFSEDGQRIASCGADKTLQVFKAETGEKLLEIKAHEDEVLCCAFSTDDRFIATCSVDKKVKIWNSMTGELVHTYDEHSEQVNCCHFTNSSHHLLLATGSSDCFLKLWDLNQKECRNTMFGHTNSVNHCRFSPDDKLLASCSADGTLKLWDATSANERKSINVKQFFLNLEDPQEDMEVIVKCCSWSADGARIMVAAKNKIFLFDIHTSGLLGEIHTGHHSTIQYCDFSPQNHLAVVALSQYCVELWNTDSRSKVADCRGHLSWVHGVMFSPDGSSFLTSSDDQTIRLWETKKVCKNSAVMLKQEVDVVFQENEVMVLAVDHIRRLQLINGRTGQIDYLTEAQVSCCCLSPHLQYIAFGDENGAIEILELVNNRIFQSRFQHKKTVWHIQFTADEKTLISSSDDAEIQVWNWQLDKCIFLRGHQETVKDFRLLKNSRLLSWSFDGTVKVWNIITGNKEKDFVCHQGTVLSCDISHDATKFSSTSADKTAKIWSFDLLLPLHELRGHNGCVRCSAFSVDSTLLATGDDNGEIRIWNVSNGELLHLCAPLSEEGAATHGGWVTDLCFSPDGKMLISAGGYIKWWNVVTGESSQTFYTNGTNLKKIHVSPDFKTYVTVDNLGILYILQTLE

SMILES strings stand for the structures. Only a part is listed here, and it is no random draw. Calls of active or inactive are those of the source.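 How the source made its calls: active means mean activity change at or below -40%, meaning activation of 40% or more, at 20 µM; inactive means the rest.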

Turning to `O=[As](O)(c1ccc(O)cc1)c1ccccc1O`, the activity change, negative = activation is inactive: 15.2%.
